# Target: MW11-h317 (humanized anti-PD-1 monoclonal antibody)
# Chains of the proteins cited; added tags and fusions are not shown. A line that says so, or that is headed by a name, gives the form on record, which may keep a tag or linker.
# MW11-h317 (humanized anti-PD-1 monoclonal antibody), one chain, as listed by the source, chain 2 of 2: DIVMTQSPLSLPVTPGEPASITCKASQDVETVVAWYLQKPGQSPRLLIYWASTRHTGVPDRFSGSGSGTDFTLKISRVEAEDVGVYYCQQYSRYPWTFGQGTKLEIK
# MW11-h317 (humanized anti-PD-1 monoclonal antibody), one chain, as listed by the source, chain 1 of 2: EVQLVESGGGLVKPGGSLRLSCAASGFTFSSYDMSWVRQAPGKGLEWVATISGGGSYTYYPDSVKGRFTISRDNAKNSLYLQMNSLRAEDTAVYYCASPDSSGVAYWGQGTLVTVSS
# Test: flow cytometry on cells
# Conditions: chain shown with the change; HEK 293 cells transfected with PD-1 (WT or mutant) fused with EGFP; MW11-h317 detected in the APC channel
row,Binder,"other: percent of cells in Q1-UR quadrant (PD-1-GFP positive, MW11-h317-APC positive) [%]"
1,"WT PD-1 (lacking the intracellular region) fused with EGFP, on HEK 293 cells N58A (protein) LDSPDRPWNPPTFSPALLVVTEGDNATFTCSFSATSESFVLNWYRMSPSNQTDKLAAFPEDRSQPGQDCRFRVTQLPNGRDFHMSVVRARRNDSGTYLCGAISLAPKAQIKESLRAELRVTERRAEVPTAHPSPSPRPAGQFQTLVVGVVGGLLGSLVLLVWVLAVI",1.67
2,"WT PD-1 (lacking the intracellular region) fused with EGFP, on HEK 293 cells N74A (protein) LDSPDRPWNPPTFSPALLVVTEGDNATFTCSFSNTSESFVLNWYRMSPSAQTDKLAAFPEDRSQPGQDCRFRVTQLPNGRDFHMSVVRARRNDSGTYLCGAISLAPKAQIKESLRAELRVTERRAEVPTAHPSPSPRPAGQFQTLVVGVVGGLLGSLVLLVWVLAVI",25.8
3,"WT PD-1 (lacking the intracellular region) fused with EGFP, on HEK 293 cells N116A (protein) LDSPDRPWNPPTFSPALLVVTEGDNATFTCSFSNTSESFVLNWYRMSPSNQTDKLAAFPEDRSQPGQDCRFRVTQLPNGRDFHMSVVRARRADSGTYLCGAISLAPKAQIKESLRAELRVTERRAEVPTAHPSPSPRPAGQFQTLVVGVVGGLLGSLVLLVWVLAVI",25.2
4,"WT PD-1 (lacking the intracellular region) fused with EGFP, on HEK 293 cells N49A (protein) LDSPDRPWNPPTFSPALLVVTEGDAATFTCSFSNTSESFVLNWYRMSPSNQTDKLAAFPEDRSQPGQDCRFRVTQLPNGRDFHMSVVRARRNDSGTYLCGAISLAPKAQIKESLRAELRVTERRAEVPTAHPSPSPRPAGQFQTLVVGVVGGLLGSLVLLVWVLAVI",31.1

# — PMC6814707
